# Test results from PubChem BioAssay AID736 (The Scripps Research Institute Molecular Screening Center, 2007).
# By UniProt entry, the sequences of proteins in these tests, tags left out.
# UniProt O95136, whole entry: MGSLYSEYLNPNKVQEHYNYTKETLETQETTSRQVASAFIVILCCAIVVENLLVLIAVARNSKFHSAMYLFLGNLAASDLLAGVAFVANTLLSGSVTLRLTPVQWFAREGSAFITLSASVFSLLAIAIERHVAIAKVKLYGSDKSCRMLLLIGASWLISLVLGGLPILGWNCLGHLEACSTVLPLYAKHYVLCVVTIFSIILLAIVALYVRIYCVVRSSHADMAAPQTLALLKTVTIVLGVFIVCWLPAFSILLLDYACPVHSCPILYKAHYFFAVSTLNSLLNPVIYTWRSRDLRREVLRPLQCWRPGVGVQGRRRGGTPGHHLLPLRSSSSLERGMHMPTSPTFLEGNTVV
# The entries are a selection whose mix differs from that of the whole data set. Calls of active or inactive are those of the source. Cut-off read from the data, not from the text of the source: active = inhibition above about 45%; inactive = the rest.
# Target: Sphingosine 1-phosphate receptor 2 (Homo sapiens) (UniProt O95136)
# Assay: human S1P2 receptor antagonists, primary screen, cell-based (AID 736);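 note: CRE beta-lactamase reporter cells expressing human S1P2 stimulated with S1P; 0% = agonist at EC80 alone and 100% = agonist plus reference antagonist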
# Details: cell-based S1P2 antagonist assay, at 5 µM, stronger effect = higher value
row,SMILES,inhibition
1,CP(=O)(OC12CC3CC(CC(C3)C1)C2)OC12CC3CC(CC(C3)C1)C2,inactive: -15.9%
2,CCN(CC)CC(O)COC(=O)C(O)(c1ccccc1)C1CCCCC1 (stereo not given),inactive: 5.32%
3,CP(=O)(Oc1ccccc1)N1CCOC1=O (stereo not given),inactive: -11%
4,COc1ccccc1OP(C)(=O)Nc1c(C)n(C)n(-c2ccccc2)c1=O (stereo not given),inactive: 13.3%
5,CP(=O)(Nc1ccc(Cl)cc1)Oc1ccc(F)cc1 (stereo not given),inactive: -6.55%
6,CC(C)(C)c1ccc(OP(C)(=O)O)cc1,inactive: 4.17%
7,CN(C)CCOC(=O)C(O)(c1ccccc1)C1CCCC1 (stereo not given),inactive: -14.5%
8,COc1ccc(OP(C)(=O)Nc2ccccn2)cc1 (stereo not given),inactive: -1.93%
9,Cc1c(NP(C)(=O)Oc2ccc(C(C)C)cc2)c(=O)n(-c2ccccc2)n1C (stereo not given),inactive: -3.13%
10,CCc1ccc(OP(C)(=O)O)cc1,inactive: -11.8%
11,CP(=O)(Nc1ccccn1)Oc1ccccc1 (stereo not given),inactive: 3.69%
12,COc1ccccc1OP(C)(=O)Nc1ccc(C)cc1C (stereo not given),inactive: -2.26%
13,COc1ccccc1OP(C)(=O)Nc1ccc(C)c(C)c1 (stereo not given),inactive: 6.71%
14,Cc1nc2ccc3ccccc3c2o1.O=[N+]([O-])c1cc([N+](=O)[O-])c(O)c([N+](=O)[O-])c1,inactive: -1.88%
15,CCN(CC)CCCOC(=O)C(O)(c1ccccc1)C1CCCCC1 (stereo not given),inactive: -1.57%
16,CP(=O)(Nc1ccccc1)Oc1ccc(F)cc1 (stereo not given),inactive: 7.17%
17,CP(=O)(Nc1ccccc1F)Oc1ccccc1 (stereo not given),inactive: -8.71%
18,CCOP(C)(=S)SCC(=O)NC(C)(CC)C(=O)O (stereo not given),inactive: 0.5%
19,CP(=O)(Nc1ccc2c(c1)OCCO2)Oc1ccccc1 (stereo not given),inactive: -12.7%
20,COc1ccc(OP(C)(=O)Nc2cccc(Br)c2)cc1 (stereo not given),inactive: 1.37%
21,CN(C)CCOC(=O)C(O)(c1ccccc1)C1CCCCC1 (stereo not given),inactive: 7.79%
22,COc1ccccc1OP(C)(=O)Nc1c(C)cccc1C (stereo not given),inactive: -16.9%
23,Cc1nc2ccc3ccccc3c2s1.O=[N+]([O-])c1cc([N+](=O)[O-])c(O)c([N+](=O)[O-])c1,inactive: 3.51%
24,Cc1cc(C)cc(OP(C)(=O)Nc2ccc(C)cc2C)c1 (stereo not given),inactive: 21.3%
25,Cc1cc(C)cc(OP(C)(=O)Nc2ccccn2)c1 (stereo not given),inactive: 5.57%
26,Cc1ccc(C)c(NP(C)(=O)Oc2ccccc2)c1 (stereo not given),inactive: 18.2%
27,COc1ccc(OP(C)(=O)Nc2cccc(F)c2)cc1 (stereo not given),inactive: -12.6%
28,CP(=O)(NC(=O)Nc1ccccc1)Oc1ccccc1 (stereo not given),inactive: -11.2%
29,CP(=O)(Nc1ccccn1)Oc1ccc(Cl)cc1 (stereo not given),inactive: -11.1%
30,CP(=S)(Nn1cnnc1)Oc1ccccc1 (stereo not given),inactive: -4.18%
